## Yeast mating assay 1: variants of the scFv Ab-14

Reference: Engelhart et al. 2022, doi:10.1038/s41597-022-01779-4. File: FLAb, binding data.

All variants were tested on one target, the spike HR2 peptide PDVDLGDISGINAS (SARS-CoV-2).

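Variants in AAYL50 differ from the parent at up to three CDR positions; double and triple changes were sampled at random. In AlphaSeq, yeast of one mating type display the scFv and yeast of the other type display the target. Binding brings cells together so that they mate, and sequencing counts the barcode pairs among the diploids. Read counts were normalised to the haploid input and turned into Kd by a linear fit to BCL2-family pairs of known affinity, for each replicate. There are three technical replicates.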

Each scFv is VH, a 15-residue (Gly4Ser)3 linker, VL, as in the parent Ab-14, and differs from it in the CDRs of the light chain only.
VH: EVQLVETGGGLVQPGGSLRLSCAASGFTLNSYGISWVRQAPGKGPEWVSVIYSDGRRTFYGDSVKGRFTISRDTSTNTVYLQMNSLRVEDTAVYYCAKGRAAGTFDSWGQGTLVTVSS
VL: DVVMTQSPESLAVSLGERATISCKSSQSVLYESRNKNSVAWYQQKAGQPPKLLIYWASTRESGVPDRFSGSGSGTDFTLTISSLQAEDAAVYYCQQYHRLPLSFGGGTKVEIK

The parent's light chain CDRs are KSSQSVLYESRNKNSVA, WASTRES, QQYHRLPLS; each variant's own CDRs replace them letter for letter.
The read-out is the apparent dissociation constant on a log10 scale (nM): the lower, the stronger.
The mean shown is taken over the replicates in which the pair was detected.
"ND" marks a missing value. The strain was present, yet no cells mated with the target were sequenced in that replicate, which points to weak or no binding.
Empty control strains, which show no peptide, gave a signal in 18% of pairings with library AAYL50; the median was 4.19 and 95% of these signals were weaker than 2.99. No background was subtracted. Also given: how often the same scFv was detected with the empty control strains, with their mean in brackets.

CDR-L1	CDR-L2	CDR-L3	replicates, log10 nM	log10 Kd (nM), mean	empty controls
KSSQSVLYESKNKNSVA	WASTRES	ETYHRLPLS	3.30 / 2.51 / 2.77	2.86	2 of 9 (3.01)
KSSQSVIYESRNKNSVA	WASTRES	QQYHRVWLS	3.35 / 2.76 / 2.89	3.00	0 of 9
KGSQSVLYEARNENSVA	WASTRES	QQYHRLPLS	0.98 / 1.07 / 1.08	1.04	2 of 9 (5.07)
KSSQSVLYESRNFQSVA	WASTRES	QQYHRLDLS	ND / ND / ND	ND	0 of 9
HSSQSVLYESRNKNSVA	WASTRES	QQYHGLVLS	ND / ND / ND	ND	0 of 9
KSSPSVLYESRNKNWVA	WASTRES	QQPHRLPLS	ND / ND / ND	ND	0 of 9
KSSQCVLYESRNVNSVA	WASTRES	QQYHYLPLS	2.27 / 2.66 / 3.16	2.70	0 of 9
KSSQSVMYESRWKNSVA	WASTRES	QQYHELPLS	1.68 / 1.77 / 2.82	2.09	1 of 9 (2.57)
KSSQSVLYEWRNKGSVA	QASTRES	QQYHRLPLS	-0.06 / 0.26 / 0.06	0.09	1 of 9 (5.09)
KSSQSVLYESINKNSVA	WASTHES	QQYHRCPLS	ND / 4.16 / ND	4.16	1 of 9 (3.10)
KSSQSVLYESLNKNSVA	WASTRES	QQEHRNPLS	ND / 4.38 / ND	4.38	2 of 9 (4.46)
KISQSDLYESRNKNSVA	WASTRES	QQYHVLPLS	-0.10 / 0.22 / 0.09	0.07	2 of 9 (4.06)
KSSQSVLYECRNKNSFA	WASTRES	QQYHRLPLS	0.75 / 0.97 / 0.97	0.90	1 of 9 (4.68)
KSSQSVLYESRNYNSVA	WASTRQS	QQYHRAPLS	ND / ND / ND	ND	0 of 9
KSSQSVTYYSRNKNSVA	WASTRES	QQYHDLPLS	1.50 / 1.37 / 1.67	1.51	1 of 9 (4.82)
KSSQSVLYESRNKNSMA	WAVTRES	QQFHRLPLS	2.55 / 2.28 / 2.36	2.39	2 of 9 (4.21)
KSAQSVLYESRNSNSVA	WASTRPS	QQYHRLPLS	2.12 / 1.31 / 1.58	1.67	0 of 9
KSSQSHLKESRNKASVA	WASTRES	QQYHRLPLS	3.42 / 3.02 / 2.88	3.11	7 of 9 (4.61)
KSVQMVLYESRNKNSVA	WASTRES	QQYHRLPPS	3.32 / 2.24 / 2.72	2.76	3 of 9 (4.07)
KSSQSVLYESRCKNSVA	WASTREF	QQYHRLPLL	ND / ND / ND	ND	0 of 9
HSSQSVQYESRNKNSVA	WASTREL	QQYHRLPLS	0.77 / 0.93 / 0.91	0.87	3 of 9 (4.10)
KSSQSVLYESRNKNSVA	WTETRES	QQYHQLPLS	1.87 / 1.52 / ND	1.69	0 of 9
KSRQHVLYESRNKNSVA	WASTRES	QQYHRVPLS	3.51 / 2.51 / ND	3.01	0 of 9
KSSQSVLYESRNKNSVA	PAKTRES	QQYHRLPKS	ND / ND / ND	ND	4 of 9 (4.00)
KSSQSVSYEWRNKNSVA	WASTRES	QQYHRLPNS	1.00 / 0.99 / 1.15	1.05	3 of 9 (3.43)
KSSQSVLYESRNKNSWA	WACTRES	QQYHRSPLS	ND / ND / ND	ND	0 of 9
KESQSVLYESRNKQSVA	WASTRES	QQIHRLPLS	ND / ND / ND	ND	2 of 9 (3.76)
KSSQSVLYESRNKNSVA	YARTRES	QQYHRLPLS	1.71 / 1.61 / 1.81	1.71	0 of 9
KSSQSVLYESRAKNSVA	WASTRNV	QQYHRLPLS	1.33 / 1.18 / 1.26	1.26	1 of 9 (3.20)
KSSQYVLYESRNKNSVA	WASTRES	QQYHPLPLV	ND / ND / ND	ND	0 of 9
ISSQSVLYESRNKNSVA	WASLRES	WQYHRLPLS	1.80 / 1.71 / 1.37	1.62	1 of 9 (4.52)
KSSQSVLYESRNKHSVA	WASTRES	QQIHRNPLS	ND / ND / ND	ND	2 of 9 (4.74)
KSSQSVLYESRNKNSVA	WFSTRES	QQYHRLLLE	4.43 / ND / 4.33	4.38	3 of 9 (4.03)
KSSQSVLYESRNKNSVA	WASWRQS	QQYHRLPES	ND / ND / ND	ND	0 of 9
KSSQSVLGESVNKNSVA	QASTRES	QQYHRLPLS	-0.35 / -0.01 / -0.21	-0.19	1 of 9 (5.63)
KSSQSVLYESRRKNSVC	WASTRES	QQCHRLPLS	ND / ND / ND	ND	0 of 9
MSSQSVLYESINKNSVA	WASTRES	QQQHRLPLS	ND / ND / ND	ND	0 of 9
VSSQSVLYDSRNKNSFA	WASTRES	QQYHRLPLS	5.63 / 4.61 / ND	5.12	3 of 9 (4.79)
KSSTSVLYESRNKNSVA	WASTRES	QQYQRLSLS	1.71 / 1.33 / 1.26	1.43	0 of 9
KSSQLVIYESRNKNSVA	WASTRES	QQYHRLPLS	1.83 / 1.58 / 1.86	1.76	0 of 9
KSSQSVLYESRNKNSDA	WKSTREE	QQYHRLPLS	ND / ND / ND	ND	1 of 9 (2.51)
KSSQSVLYESRFKNSVA	WASTREQ	QQYHRLPLS	0.87 / 1.13 / 1.10	1.03	1 of 9 (3.99)
KSPQSVKYESRNKNSVA	WASTRES	SQYHRLPLS	3.40 / ND / ND	3.40	1 of 9 (3.72)

Repeated from above, the 4 best binders with a signal in all replicates:

CDR-L1	CDR-L2	CDR-L3	replicates, log10 nM	log10 Kd (nM), mean	empty controls
KSSQSVLGESVNKNSVA	QASTRES	QQYHRLPLS	-0.35 / -0.01 / -0.21	-0.19	1 of 9 (5.63)
KISQSDLYESRNKNSVA	WASTRES	QQYHVLPLS	-0.10 / 0.22 / 0.09	0.07	2 of 9 (4.06)
KSSQSVLYEWRNKGSVA	QASTRES	QQYHRLPLS	-0.06 / 0.26 / 0.06	0.09	1 of 9 (5.09)
HSSQSVQYESRNKNSVA	WASTREL	QQYHRLPLS	0.77 / 0.93 / 0.91	0.87	3 of 9 (4.10)